Values of other authors in patent US7476508B2, “Method of screening agent for improving memory and learning ability” (Astellas Pharma Inc., priority 2003, dated 2009).

Details: in vivo; cited from earlier work

## Pregnenolone sulfate [PS, reference compound]
  transferability into the brain: low transferability into the brain
